{"source": "patent US9808528B2", "about": "“Protein-polymer-drug conjugates and methods of using same” (priority 2014, dated 2017)", "test_system": "NCI-N87 cells", "experiment": "Tumor growth response, NCI-N87 xenograft", "type": "in vivo, mice", "details": "single IV dose; Example 14 at […]; Example 16 at 3 mg/kg", "excerpt": "Mice were sacrificed when tumors reached a size of 800 to 1500 mm^3.", "data": [{"substance": "Trastuzumab-((EG2-MI (2%)-(10 kDa PHF-BA (28%)-(AF-HPA-Ala (9%) [Example 14]", "values": [{"measurement": "tumor growth response (in words), FIG. 6", "result": "tumor growth delay response"}]}]}
